# Target: Human LC3B (residues 1-120) (human) (UniProt Q9GZQ8)
# Assay: ITC
substance,measurement,value
"TEX264 269-278 S271A,S272A",Kd,46 µM
